# Results from PubChem BioAssay AID624417 (National Center for Advancing Translational Sciences (NCATS), 2012).
# By UniProt entry, the sequences of proteins in these tests, tags left out.
# UniProt P43220, whole entry, looked up: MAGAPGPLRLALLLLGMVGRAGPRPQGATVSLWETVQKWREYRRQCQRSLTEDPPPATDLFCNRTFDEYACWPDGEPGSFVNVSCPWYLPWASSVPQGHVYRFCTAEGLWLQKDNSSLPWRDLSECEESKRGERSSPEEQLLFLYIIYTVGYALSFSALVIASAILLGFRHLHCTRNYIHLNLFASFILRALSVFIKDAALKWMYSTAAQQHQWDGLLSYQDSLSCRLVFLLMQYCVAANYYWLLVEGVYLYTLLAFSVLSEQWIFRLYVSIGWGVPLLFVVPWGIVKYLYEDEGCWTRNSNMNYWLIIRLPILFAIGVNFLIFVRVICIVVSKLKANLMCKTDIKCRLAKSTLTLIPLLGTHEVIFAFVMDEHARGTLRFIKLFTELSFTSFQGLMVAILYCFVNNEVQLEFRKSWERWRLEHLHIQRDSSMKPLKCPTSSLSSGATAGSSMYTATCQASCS
# Screen size: about 410,000 compounds; about 6,400 (1.6%) were called active. The source calls these results inconclusive, neither active nor inactive. Calls come from the whole dose curve; as a rule, active = well fitted inhibition curve with a large enough effect; inconclusive = small, poorly fitted or top-dose-only effect; inactive = no such curve, though single readings can be large or run the other way.
# Target: Glucagon-like peptide 1 receptor (Homo sapiens) (UniProt P43220)
# Assay: qHTS of GLP-1 Receptor Inverse Agonists (Inhibition Mode); note: nearly all actives have a fitted effect of over 55% in size
# Conditions: HEK293 GLP-1R CRE-luciferase, luminescence, 24 h, GLP-1R form is constitutively active; activity change, negative = inhibition: at 38.3 µM (top of the series)
# % is set by controls: 0 for no effect and ±100 for the full control effect; potency is the fitted concentration of half-maximal effect.
SMILES,Potency,"activity change, negative = inhibition"
N#CCCN(C(=O)COC(=O)C(O)(c1ccccc1)c1ccccc1)c1ccc(F)cc1,inconclusive: 28.2 µM,–
CCC1=CC2Cc3nc4ccc(Cl)cc4c(N)c3C(C1)C2 (configuration not stated),inconclusive: 22.4 µM,–
O=C(/C=C/c1ccccc1)OC1CN2CCC1CC2 (configuration not stated),inconclusive: 10 µM,–
CC1CCC(C(C)C)C(OP(=O)(Nc2ccccn2)c2ccccc2)C1 (configuration not stated),inconclusive: 7.94 µM,–
CCCCOc1ccc(C(=O)NCC2(N3CCCCC3)CCCCC2)cc1OC,inconclusive: 3.98 µM,–
O=P(Nc1ccccn1)(c1cccc2ccccc12)c1cccc2ccccc12,inconclusive: 22.4 µM,–
O=C(O)C(=O)c1ccc(N(CCCl)CCCl)cc1,inconclusive: 28.2 µM,–
CCC(C)N(CC(C)C)C(=S)SC(NC(C)=O)C(Cl)(Cl)Cl (configuration not stated),inconclusive: 31.6 µM,–
O=C(OC1CN2CCC1CC2)c1cccc([N+](=O)[O-])c1 (configuration not stated),–,inconclusive: -30.4%
CSc1ccc(Nc2c([N+](=O)[O-])cc([N+](=O)[O-])cc2[N+](=O)[O-])cc1,inconclusive: 11.2 µM,–
COc1ccc2nc(NP(=O)(c3ccccc3)c3ccccc3)sc2c1,inconclusive: 14.1 µM,–
Cc1c2c(nc3ccccc13)SC(C(Cl)Cl)C2 (configuration not stated),inconclusive: 10 µM,–
O=C(OC1CN2CCC1CC2)C12CC3CC(CC(C3)C1)C2 (configuration not stated),inconclusive: 3.55 µM,–
Cc1ccc2nc3c(c(C)c2c1)CC(C(Cl)Cl)S3 (configuration not stated),inconclusive: 31.6 µM,–
O=[N+]([O-])c1ccc(-c2cc([N+](=O)[O-])c(O)c([N+](=O)[O-])c2)cc1,inconclusive: 28.2 µM,–
O=[N+]([O-])c1cc([N+](=O)[O-])c(-c2ccn[nH]2)s1,inconclusive: 11.2 µM,–
CC(C)c1ccc(OP(=O)(Nc2ccccn2)Oc2ccccc2F)cc1 (configuration not stated),inconclusive: 10 µM,–
O=P(Nc1nc2ccc(Cl)cc2s1)(c1ccccc1)c1ccccc1,inconclusive: 7.94 µM,–
CN(C)P(=O)(N(C)C)n1c(Nc2ccccc2)nnc1-c1ccccc1,inconclusive: 8.91 µM,–

SMILES,Potency,"activity change, negative = inhibition"
CCC(=O)N(c1ccccc1)C1CCCCC1,inconclusive: 11.2 µM,–
CN1CCCC(OC(=O)C(c2ccccc2)c2ccccc2)C1 (configuration not stated),inconclusive: 11.2 µM,–
CCc1nc2c(n1)c1c(non1O)c1c2no[n+]1[O-],inconclusive: 28.2 µM,–
O=[N+]([O-])c1cc([N+](=O)[O-])c(CCNc2ccccc2)c([N+](=O)[O-])c1,inconclusive: 14.1 µM,–
CC1CCN(C(=O)Oc2c(Cl)cc(Cl)c3cccnc23)CC1,inconclusive: 12.6 µM,–
O=P(Nc1nc2ccccc2s1)(c1ccccc1)c1ccccc1,inconclusive: 10 µM,–
Nc1ccc(CCCCOc2ccccc2)cc1,inconclusive: 10 µM,–
O=[N+]([O-])c1ccc(O)c(/C=N/Nc2ccc([N+](=O)[O-])cc2[N+](=O)[O-])c1,inconclusive: 6.31 µM,–
CC(=O)NC(SC(=S)N(C)C)C(Cl)(Cl)Cl (configuration not stated),inconclusive: 2.51 µM,–
CC(C)C(=O)NC(Sc1ccccc1)C(Cl)(Cl)Cl (configuration not stated),inconclusive: 7.94 µM,–
CC(C)(C)C(=O)NC(Sc1ccccc1)C(Cl)(Cl)Cl (configuration not stated),inconclusive: 12.6 µM,–
Cc1ccccc1CN(C)C(=O)COC(=O)C(O)(c1ccccc1)c1ccccc1,inconclusive: 10 µM,–
N#C/C(=C\c1ccc(N(CCBr)CCBr)cc1)C(N)=O,inconclusive: 28.2 µM,–
O=C(NC1CCS(=O)(=O)C1)NP(=S)(Oc1ccccc1)Oc1ccccc1 (configuration not stated),inconclusive: 28.2 µM,–
CC(NC(=O)COC(=O)C(O)(c1ccccc1)c1ccccc1)c1ccccc1 (configuration not stated),inconclusive: 11.2 µM,–
Cc1ccccc1OP(=O)(Nc1ccccn1)Oc1ccccc1C,inconclusive: 10 µM,–
O=c1c2cc([N+](=O)[O-])ccc2[nH]c2c([N+](=O)[O-])cc([N+](=O)[O-])cc12,inconclusive: 3.16 µM,–
Cc1ccc(OP(=O)(Nc2ccccn2)Oc2ccc(C)cc2)cc1,inconclusive: 28.2 µM,–
